Assay results: ChEMBL document CHEMBL1146126 (Bioorg Med Chem Lett, 2006)

Experiments:
Conditions in all cases: route subcutaneous
Rattus norvegicus [1] = test: Increase in total bone density at 3 mg/kg, sc 28 days post dose in ovariectomized osteopenic rat; format: functional
Rattus norvegicus [2] = test: Increase in cortical area at 1 mg/kg, sc 28 days post dose in ovariectomized osteopenic rat; format: functional
Rattus norvegicus [3] = test: Increase in cortical area at 3 mg/kg, sc 28 days post dose in ovariectomized osteopenic rat; format: functional
Rattus norvegicus [4] = test: Increase in cortical thickness at 1 mg/kg, sc 28 days post dose in ovariectomized osteopenic rat; format: functional
Rattus norvegicus [5] = test: Increase in cortical thickness at 3 mg/kg, sc 28 days post dose in ovariectomized osteopenic rat; format: functional
Rattus norvegicus [6] = test: Increase in cortical content at 1 mg/kg, sc 28 days post dose in ovariectomized osteopenic rat; format: functional
Rattus norvegicus [7] = test: Increase in cortical content at 3 mg/kg, sc 28 days post dose in ovariectomized osteopenic rat; format: functional
Rattus norvegicus [8] = test: Increase in total bone content at 1 mg/kg, sc 28 days post dose in ovariectomized osteopenic rat; format: functional, Bone element
Rattus norvegicus [9] = test: Increase in total bone content at 3 mg/kg, sc 28 days post dose in ovariectomized osteopenic rat; format: functional

## O=C(O)c1ccc(CCCN2C(=O)CC[C@@H]2CC[C@@H](O)Cc2cccc(C(F)(F)F)c2)s1
Rattus norvegicus [1]
  Activity: 26.36%
Rattus norvegicus [2]
  Activity: 34.31%
Rattus norvegicus [3]
  Activity: 41.77%
Rattus norvegicus [4]
  Activity: 52.69%
Rattus norvegicus [5]
  Activity: 62.57%
Rattus norvegicus [6]
  Activity: 35.76%
Rattus norvegicus [7]
  Activity: 43.27%
Rattus norvegicus [8]
  Activity: 20.59%
Rattus norvegicus [9]
  Activity: 23.72%
